Measured values published in patent publication US10806735B2, “Use of neutrophil elastase inhibitors in liver disease” (pH Pharma Co., Ltd., priority 2018, dated 2020).

System: DIO mice
Experiment: Example 2: oral glucose tolerance test (OGTT) in DIO mice
Type: in vivo
Protocol: Male DIO (diet-induced obesity) mice (C57BLJ6NTac DIO MPF, n=35) were purchased from Taconic Biosciences (Rensselaer, N.Y.). DIO mice were prepared by feeding male C57BL16 mice a high fat diet (HFD, D12492; Research Diets, Inc., New Brunswick, N.J.) from 6-16 weeks of age. A twelve-hour light cycle was maintained throughout study duration. Room temperature was monitored daily and maintained at 22-25° C. DIO mice were housed individually and maintained on the HFD during a 7-day facility acclimation period and throughout the study period. All mice were administered vehicle (5% DMSO/3% ethanol/92% peanut oil) once daily during the acclimation period.
Compounds were administered once daily in the morning by oral gavage for 6 weeks. Dose volume was maintained at 5 ml/kg throughout the study.
Whole blood was obtained weekly from fed animals by tail clip for measurement of non-fasted blood glucose (StatStrip; Nova Biomedical, Waltham, Mass.) on day 7, day 14, day 21 and day 35 after first dosing. Body weight was recorded prior to glucose measurement at baseline and weekly thereafter. Oral glucose tolerance tests were performed in fasted mice at baseline (day −1), day 28 and day 42 thereafter. […] At the end of the 6-hour fasting period, mice were challenged with glucose (2 g/kg, 10 ml/kg, by oral gavage). Blood samples were obtained by tail clip at 0, 20, 40, 60, 90 and 120 minutes post-glucose load for assessment of blood glucose by StatStrip. Serum insulin was measured from time 0 blood samples of OGTT using the Mouse/Rat Insulin Kit (MSD #K152BZC; Meso Scale Diagnostics, Rockville, Md.).
All data are represented as group mean±SEM. Data were analyzed using JMP (SAS software). All normalizations were calculated using terminal body weight. […] Treatment effects compared to vehicle were determined using Oneway ANOVA (*, p<0.05) followed by Dunnett's test where appropriate.

For `CN(CCOc1ccc(CC2SC(=O)NC2=O)cc1)c1ccccn1` (stereo not shown) [rosiglitazone, reference compound], the “decrease of glucose AUC on day 42 compared to baseline” value (30 mg/kg/day PO, vehicle 12.6±10.3%) was 44.9±3.9%, the “OGTT glucose AUC on day 42” value (30 mg/kg/day PO, vehicle 27.8±1.2) was 20.1±0.5 mg/dL/min×10^3 and the “OGTT glucose AUC on day 28” value (30 mg/kg/day PO, vehicle 27.9±1.1) was 20.7±0.4 mg/dL·min×10^3. The “OGTT glucose AUC at baseline” value (day −1 before treatment, group assigned to 30 mg/kg/day) was 37.6±2.6 mg/dL·min×10^3.
